The text below walks through data of patent US5516797A, “Immunosuppressive compounds” (Vertex Pharmaceuticals, Incorporated, priority 1994, dated 1996).

Protein sequences, listed by entry. Tags and fused reporters are not part of them.
UniProt P62942, whole entry: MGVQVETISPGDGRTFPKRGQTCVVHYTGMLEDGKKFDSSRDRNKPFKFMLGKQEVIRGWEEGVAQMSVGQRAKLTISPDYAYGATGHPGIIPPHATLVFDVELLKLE

The target in the assay is FK-506 binding protein (FKBP) (Homo sapiens, UniProt P62942). In words: Competitive binding to FKBP against [3H]dihydro-FK-506 (apparent Kd). Conditions: competition with [3H]dihydro-FK-506. From the text:
Human FK-506 binding protein can be obtained as described by Harding, M. W. et al., Nature 341:758-760 (1989). Values for the apparent Kd can be determined from a competitive LH-20 binding assay performed as described by Harding et al., using 32-[1-^14 C]-benzoyl FK-506 as a reporting ligand; or using [^3 H]dihydro-FK-506, as described by Siekierka, J. J. et al., Nature 341:755-757 (1989). The data was obtained using the latter method, where the ability of an unlabeled compound to compete with the binding of [^3 H]dihydro-FK-506to FK-506 binding protein was measured.

Turning to `COc1cc(C(=O)C(=O)N2CCCC[C@H]2C(=O)OCCCc2c[nH]c3ccccc23)cc(OC)c1OC` [Compound 84], the Kd turned out to be 54 nM.

In the case of `COc1cc(C(=O)C(=O)N2CCCC[C@H]2C(=O)OCc2cccc(Oc3ccccc3)c2)cc(OC)c1OC` [Compound 61], the Kd stood at 35 nM.

Regarding `COC(=O)C(=O)N1CCCC[C@H]1C(=O)OCCCCC1CCCCC1` [Compound 34], the Kd lay within 2000 to 3000 nM.

On to `COc1cc(C(=O)C(=O)N2CCCC[C@H]2C(=O)OCCCCC2CCCCC2)cc(OC)c1OC` [Compound 57], for which the Kd amounted to 100 nM.
